{"source": "patent US20180030537A1", "about": "“PUMA, A PRO-APOPTOTIC GENE, AS A NOVEL MOLECULAR BIOMARKER FOR TNFALPHA-INDUCED HUMAN ISLET DAMAGE” (CITY OF HOPE, priority 2010, published 2018)", "tested_on": "human islets", "experiment": "Preproinsulin precursor mRNA synthesis and total insulin release of single human islets", "assay_type": "cell-based", "description": "FIGS. 3A-D. TNF-α, but not IFNγ, impairs glucose induced preproinsulin precursor mRNA in human islets. FIG. 3A) Insulin content of medium supernatant from a single human islet culture in hextuplicate during 16 hours in low- or high-glucose media with or without 50 ng/ml TNF-α was measured. FIG. 3B) The glucose induced newly synthesized preproinsulin precursor mRNA measured by pre-spliced preproinsulin mRNA normalized by pre- and post-spliced preproinsulin mRNA (% exon) in the corresponding islets with or without 50 ng/ml. TNF-α was also examined (n=3, *p<0.05). FIG. 3C) Glucose induced preproinsululin precursor mRNA synthesis with or without TNF-α (1, 5 and 50 ng/ml) and/or IFNγ (10, 100 and 1000 U/ml) from a single human islet in hextuplicate. FIG. 3D) Correlation between PUMA mRNA and INS precursor mRNA levels in islets cultured in high-glucose media treated with TNF-α (1, 5 and 50 ng/ml), IFN-γ (10, 100 and 1000 U/ml) or a combination of both for 16 hours. The data points are from a total of 53 single islets (r=−0.45, p<0.001). All data are presented as a mean±standard error.\nHand picked human islets were cultured with 100 uL of RPMI 1640 medium containing 5% fetal bovine serum and either low-glucose (3.3 mmol/L) or high-glucose (17 mmol/L) for 16 hours. Preproinsulin mRNA synthesis was measured from the islets by the methods described above. Pre-spliced preproinsulin mRNA (preproinsulin precursor mRNA) was normalized by pre- and post-spliced preproinsulin mRNA as described previously (32). Specifically, primer pairs used to perform qRT-PCR of pre-spliced preproinsulin mRNA are as follows: AGGTGGGCTCAGGATTCCA (SEQ ID NO. 1) (In1 upstream) and TCACCCCCACATGCTTCAC (SEQ ID NO. 2) (In1 downstream); […] (SEQ ID NO. 3) (In2 upstream) and […] (SEQ ID NO. 4) (In2 downstream); CTCTGCCTCGCCGCTGTTC (SEQ ID NO. 5) (In2Ex3 upstream) and […] (SEQ ID NO. 6) (In2Ex3 downstream); […] (SEQ ID NO. 7) (Ex2a upstream) and […] (SEQ ID NO. 8) (Ex2a downstream); […] (SEQ ID NO. 9) (Ex2b upstream) and CCACAATGCCACGCTTCTG (SEQ ID NO. 10) (Ex2b downstream); and […] […]"}
{"substance": "TNF-α: recombinant human (or rat, for INS-1) TNF-α, R&D Systems; cytokine stimulus", "values": [{"measurement": "insulin release", "setting": "50 ng/mL, low or high glucose medium, 16-hour culture, FIG. 3A", "value": "did not change insulin release levels"}, {"measurement": "glucose-induced preproinsulin precursor mRNA synthesis", "setting": "16 hours, high glucose, TNF-α 50 ng/mL, IFNγ 10-1000 U/ml, FIG. 3B, 3C", "value": "totally abolished"}, {"measurement": "concentration abrogating the preproinsulin precursor mRNA synthesis response to high glucose", "setting": "16 hours, FIG. 3C", "value": 5, "unit": "ng/mL"}]}
